Antibody variant affinities, Ab-14 light chain, assay B

All variants were tested on one target, the spike HR2 peptide PDVDLGDISGINAS (SARS-CoV-2).

Ab-14 is the parent antibody, in scFv form: VH, then the linker GGGGSGGGGSGGGGS, then VL. The heavy chain is unchanged in all variants.
VH: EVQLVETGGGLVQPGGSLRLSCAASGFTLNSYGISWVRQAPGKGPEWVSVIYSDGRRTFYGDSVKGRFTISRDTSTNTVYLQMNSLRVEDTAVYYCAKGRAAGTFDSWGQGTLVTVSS
VL: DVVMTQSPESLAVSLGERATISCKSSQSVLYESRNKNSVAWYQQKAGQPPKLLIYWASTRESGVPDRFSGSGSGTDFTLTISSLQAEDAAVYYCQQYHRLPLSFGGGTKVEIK

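Phage display of a naive human antibody library on the peptide gave the parent. These sequences belong to a second round, designed from the earlier measurements on random variants of the parent. Several design methods are mixed in this list. AlphaSeq pools MATa yeast showing the antibodies with MATalpha yeast showing the peptide. The frequency of each diploid, read from paired DNA barcodes, reflects how well the two displayed proteins bind. Each replicate has its own calibration line, from reference interactions of the BCL2 family. Each pool was mated in six replicate cultures.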

Each variant is given by its three light chain CDRs, as the data file delimits them; those of the parent are KSSQSVLYESRNKNSVA, WASTRES, QQYHRLPLS.
Variants here have more than six changes.
Kd is apparent (estimated from mating counts) and averaged on the log scale over replicates with a signal. Smaller is tighter.
"no signal" marks a missing value. The strain was present, yet no cells mated with the target were sequenced in any replicate, which points to weak or no binding.
In the paper, a design with two or fewer of six values counts as a poor binder.

The variant HISMMVGTKGYNKNSVA | NAESRED | QQYHRLPLS gave 74 nM (6 of 6 replicates; controls 2 of 18). With HISESMYYQSRNKNNIA | EMSTRER | QHYDRLPLS the result was 11 nM (6 of 6 replicates; controls 1 of 18). The variant FIMHFGEESNRNSKNIA | SKDTRCD | QQYNRLPLS showed 1.2 nM (6 of 6 replicates; controls 2 of 18). The variant NISYEQALSTYSVNNVA | QASVRAP | QMYQRLPLV showed 75 nM (3 of 6 replicates; controls 0 of 18). With KIQMFEGTLMEQINSIA | NSEVIVQ | QSYFRLPLS the result was 84 nM (5 of 6 replicates; controls 0 of 18). With KISQMSTIESITHNSVA | QVSTRES | QQYDRLPLS the result was 14 nM (6 of 6 replicates; controls 0 of 18).

The variant KCQISDEQESRQKNSVA | HASTRES | QQYHRLPLS showed 2.2 nM (6 of 6 replicates; controls 1 of 18). The variant MVTQMAMTGMMSKRSVA | NAETRED | QQYHHLPLI gave 180 nM (3 of 6 replicates; controls 0 of 18). The variant HSSPSQYYEDREFNSVA | NASQRES | QQYHRLPLS gave 1.5 nM (6 of 6 replicates; controls 1 of 18). The variant KIEISNSVSLRGTRAIA | QMSTRAH | QQYHRLPLT gave 7.0 nM (6 of 6 replicates; controls 0 of 18). The variant KLSQSDWYQSRMDNSVA | DASTRES | QQYHRLPLS gave 4.4 nM (6 of 6 replicates; controls 0 of 18). For KLSQSVGYESRLKNNVA | NASQRLE | QQYHRLPLS, the assay gave 1.6 nM (6 of 6 replicates; controls 2 of 18).

The variant TIGAQLMYGTRNRSNVA | EVSERLN | QQYDRLPLF showed no signal (0 of 6 replicates; controls 0 of 18). The variant KQQQLVWYEQRNKNSVA | EGSTRES | QQYHRLPLS showed 690 pM (6 of 6 replicates; controls 1 of 18). The variant TIGSTLMYGQRNRSNVA | EVSERLN | QQYDRLPLL gave 30 nM (6 of 6 replicates; controls 0 of 18). With KVSEFMKGLMMRKDSIA | DNNTRSN | QQYDRLPLS the result was 270 nM (3 of 6 replicates; controls 2 of 18). The variant HLSYSVDLESVHKNSIA | DLMTRES | QQYHRLPLS showed 820 pM (6 of 6 replicates; controls 0 of 18). The variant KIGATLMMLEHKQNNVA | DLVTREN | QQYHRLPLS showed 3.0 nM (6 of 6 replicates; controls 1 of 18).

For KSSGSVEMLSRNVNNVA | EASTREL | QQYHRLPLS, the assay gave 1.8 nM (6 of 6 replicates; controls 0 of 18). With MMSQVWGMGQRHINNVA | QTSTRED | QQYDRLPLI the result was 1.1 nM (6 of 6 replicates; controls 0 of 18). With QLSGPMLSESKKKNSVA | EFSTRGS | QQYHRLPLS the result was 90 nM (6 of 6 replicates; controls 0 of 18). With MVNGIMDHLSKQTNNVA | ETETRES | QQYDRLPLS the result was 50 nM (5 of 6 replicates; controls 1 of 18). For KIGMTLNQLMHQKNNVA | DLVERET | QQYFRLPLS, the assay gave 2.0 nM (6 of 6 replicates; controls 1 of 18). For KLRQSTAYLSENKNSVA | ELTTRGN | QQYFRLPLS, the assay gave 8.5 nM (6 of 6 replicates; controls 0 of 18).

The variant HLSQSVDLESVHKNAIA | DLMTRES | QQYHRLPLS gave 1.7 nM (6 of 6 replicates; controls 2 of 18). The variant HSSPSGLYESRMKNSVT | NASCRES | QQYHRLPLS gave 1.3 µM (2 of 6 replicates; controls 4 of 18). The variant MLNDAYQGDIANNQNVA | SADVLTH | QQYNKLPLS gave 4.4 nM (6 of 6 replicates; controls 1 of 18). For QLGQTIWADIMNKKSIA | AEETLID | QQYNRLPFS, the assay gave 2.6 nM (6 of 6 replicates; controls 2 of 18). The variant KLTHLSFVHDRQKASVA | DSERKAE | QQYNRLPLT gave 2.1 nM (6 of 6 replicates; controls 2 of 18). With QVAAIHEHSSDLNKAVA | EASTRDA | QQYERLPLS the result was 2.5 nM (6 of 6 replicates; controls 0 of 18).

With MISQLYNMGSFAINSVA | QASLREE | QQYDRLPLM the result was 39 nM (6 of 6 replicates; controls 2 of 18). For KVSEMMAFLQSNRNNVA | DNSTRGS | QQYHRLPLS, the assay gave 8.9 nM (6 of 6 replicates; controls 3 of 18). With KISMMINMTFEHSNNVA | EMATREK | QQYNRLPLS the result was 5.4 nM (6 of 6 replicates; controls 0 of 18). With HISYMDGHDGKNIHNIA | DTGVTSR | QQYSRLPLI the result was 1.3 nM (6 of 6 replicates; controls 0 of 18). With HLGGLMTWEEKNRNSVA | QQETRAE | QQYHHLPLS the result was 1.1 nM (6 of 6 replicates; controls 1 of 18). With KIQSHLSQSFAIWNNIA | DREQSAE | QQYHQLPLV the result was 4.1 nM (6 of 6 replicates; controls 0 of 18).

The variant KVQEQKLYWSRNKNSVA | EASTRES | QQYHRLPLS gave 1.9 nM (6 of 6 replicates; controls 0 of 18).

Extract of 3 entries:

CDR-L1,CDR-L2,CDR-L3,Kd,replicates with signal,empty controls
KVSEMMAFLQSNRNNVA,DNSTRGS,QQYHRLPLS,8.9 nM,6/6,3/18
KLSQSVGYESRLKNNVA,NASQRLE,QQYHRLPLS,1.6 nM,6/6,2/18
HLSQSVDLESVHKNAIA,DLMTRES,QQYHRLPLS,1.7 nM,6/6,2/18

A sequence measured in both rounds can read differently, since the two assays cover different ranges.
Three control strains display no target. For all light chain designs, 4% of the pairings with them gave a signal, with a median of 430 nM and one signal in twenty below 38 nM, so weak values seen in few replicates may be background. Also given: how often the same scFv was detected with the empty control strains.

Values reported by Li et al. 2023, doi:10.1038/s41467-023-39022-2 (FLAb copy).